Experimental data from PMC11859980, “Tailored Intranasal Albumin Caged Selegiline-α Synuclein siRNA Liposome with Improved Efficiency in Parkinson’s Model” (Pharmaceutics, 2025).

Tested on: MAO-B
Format: in vivo, rats
Conditions: rotenone 3 mg/kg/day IP 11 days; treatment days 12 and 20; day 30; ELISA

Compound: C#CCN(C)[C@H](C)Cc1ccccc1 [IV Sel solution, Selegiline]
- MAO-B level in brain tissue: 170.83 ± 13.93 ng/g
